Legend:
Type in all cases: functional, cell-based
[1] = system: SK-OV-3; assay: Cytotoxicity against human Scov3 cells after 72 hrs by MTT assay
In short: (§1)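 Cells kept in RPMI-1640 with 10% FBS, 2 mM L-glutamine and gentamicin; seeded at 1×10⁴ cells/well, attached overnight at 37 °C, 5% CO₂. Compounds dissolved in DMSO, diluted into FBS-free medium, tested at […], 10⁻⁵, 10⁻⁶, 10⁻⁷ M in triplicate for 72 h. MTT (5 mg/ml) added for 3 h at 37 °C, formazan dissolved in DMSO, OD read at 590 nm; viability loss versus untreated controls, IC50 read graphically; melphalan as positive control.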

[2] = Cytotoxicity against human Caov3 cells after 72 hrs by MTT assay; settings: caov-3; in short: as §1
[3] = system: A549; assay: Cytotoxicity against human A549 cells after 72 hrs by MTT assay; in short: as §1

CP(=O)(Oc1ccccc1)N1C/C(=C\c2cccs2)C(=O)/C(=C/c2cccs2)C1 (stereo not drawn)
IC50 [1]: 8 µM
IC50 [2]: 10 µM
IC50 [3]: 4 µM

— ChEMBL document CHEMBL1154820, “Synthesis, characterization and structure-activity relationship of novel N-phosphorylated E,E-3,5-bis(thienylidene)piperid-4-ones” (Eur J Med Chem, 2010)
